Source: article PMC10481938, “Discovery of new Schistosoma mansoni aspartyl protease inhibitors by structure-based virtual screening” (Memórias do Instituto Oswaldo Cruz, 2023)

Amino acid sequences for entries named in this document (tags omitted). Residues count along the entry.
UniProt P00791, 60-385: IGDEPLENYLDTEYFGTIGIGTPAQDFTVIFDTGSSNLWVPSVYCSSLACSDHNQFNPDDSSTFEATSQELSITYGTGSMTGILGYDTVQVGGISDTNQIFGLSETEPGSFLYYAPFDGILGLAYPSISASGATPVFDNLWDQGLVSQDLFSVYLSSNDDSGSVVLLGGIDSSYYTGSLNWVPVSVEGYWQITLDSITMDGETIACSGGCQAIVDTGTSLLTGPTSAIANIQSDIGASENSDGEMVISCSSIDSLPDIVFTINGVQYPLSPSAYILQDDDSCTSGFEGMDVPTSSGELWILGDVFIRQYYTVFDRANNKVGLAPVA
UniProt P91802, entry or part of it: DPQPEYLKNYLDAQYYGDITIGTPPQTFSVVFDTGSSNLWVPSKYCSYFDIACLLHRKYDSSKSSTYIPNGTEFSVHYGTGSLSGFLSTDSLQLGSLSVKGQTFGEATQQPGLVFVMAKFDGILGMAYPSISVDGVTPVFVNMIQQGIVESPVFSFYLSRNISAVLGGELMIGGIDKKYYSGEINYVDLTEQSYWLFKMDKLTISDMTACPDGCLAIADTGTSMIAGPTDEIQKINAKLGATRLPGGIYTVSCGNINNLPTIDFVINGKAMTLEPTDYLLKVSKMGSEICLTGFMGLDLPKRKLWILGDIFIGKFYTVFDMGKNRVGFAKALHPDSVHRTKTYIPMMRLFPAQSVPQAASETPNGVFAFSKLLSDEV

How the values were obtained:
porcine pepsin = target: T1, porcine pepsin (Sus scrofa, UniProt P00791); assay: Specificity assay toward porcine pepsin; assay type: biochemical; conditions: 10 μM of compound; average of triplicate of single experiment, CV% in parentheses
T1 construct: purchased Difco 0151-17 / 215110
Method: SmCD1 enzymatic assay - Initially, 2.5 μg of SmCD1 was added to a reaction medium containing 50 mM sodium acetate buffer with 50 mM NaCl at pH 3.5. […] After incubation, to start the reaction, 10 μM of the substrate octapeptide fluorescent (FRET) Abz-AIAF/FSRQ-EDDnp (102023-1, GenOne) was added to the medium. The substrate hydrolysis reaction product was continuously detected (λex = 310 nm and λem = 420 nm), using a Flex Station III microplate reader (Molecular Devices), during the initial 10 min of the reaction.
Specificity assays toward mammalian proteases - For recombinant BtCD and porcine pepsin, the same protocol described above for SmCD1 was followed, except for 10 μg of BtCD or 5 μg of pepsin were added.
The IC50 values were determined by fitting SmCD1 activity data into the 4-parameter logistic equation.

[1] = target: recombinant Schistosoma mansoni cathepsin D-like aspartyl protease 1 (SmCD1) (Schistosoma mansoni, UniProt P91802); assay: SmCD1 enzymatic assay (FRET substrate Abz-AIAF/FSRQ-EDDnp); assay type: biochemical; conditions: BEI = pIC50/MW(kDa), from SmCD1 IC50
Method: SmCD1 cloning, expression and purification - Expression of the recombinant enzyme was previously performed by our group[14] by transfection of the vector with recombinant proSmCD1 gene (proSmCD1r) into culture bottles containing human embryonic kidney (HEK293) cells. After an incubation period of three to five days, the culture medium of the HEK293 cells was collected, filtered, and used for the purification of the recombinant protein. A HisTrap FF column in-tandem with a HiLoad 16/60 Superdex column, connected to an Äkta Xpress system were used for the purification of the protein.
SmCD1 enzymatic assay - Initially, 2.5 μg of SmCD1 was added to a reaction medium containing 50 mM sodium acetate buffer with 50 mM NaCl at pH 3.5. Next, this medium was incubated with either test compounds (10 µM), pepstatin (1 - 500 µM), as a positive control, or DMSO (0,1%), as negative control, for 10 minutes, at 37 °C. After incubation, to start the reaction, 10 μM of the substrate octapeptide fluorescent (FRET) Abz-AIAF/FSRQ-EDDnp (102023-1, GenOne) was added to the medium. The substrate hydrolysis reaction product was continuously detected (λex = 310 nm and λem = 420 nm), using a Flex Station III microplate reader (Molecular Devices), during the initial 10 min of the reaction. […]

For pepstatin A [reference compound], the “Enzymatic activity inhibition (%) Pepsin” value (porcine pepsin) was 94.9 (22) % and the “Binding efficiency index (BEI)” value [1] was 11.9.
